Results on one compound are retold here after ChEMBL document CHEMBL5653621, “Freezing the Bioactive Conformation to Boost Potency: The Identification of BAY 85-8501, a Selective and Potent Inhibitor of Human Neutrophil Elastase for Pulmonary Diseases” (ChemMedChem, 2015).

For one test, the target named is T1, Neutrophil elastase (Mus musculus, UniProt Q3UP87).
T1 sequence (Q3UP87 whole entry): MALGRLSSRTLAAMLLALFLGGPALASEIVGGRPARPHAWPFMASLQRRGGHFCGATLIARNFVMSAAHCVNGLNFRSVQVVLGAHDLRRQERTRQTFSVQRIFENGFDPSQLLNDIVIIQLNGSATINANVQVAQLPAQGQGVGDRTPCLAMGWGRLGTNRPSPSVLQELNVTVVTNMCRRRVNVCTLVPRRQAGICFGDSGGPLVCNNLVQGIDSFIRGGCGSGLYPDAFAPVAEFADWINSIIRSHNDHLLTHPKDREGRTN
Kind of test: Competitive inhibition of mouse neutrophil elastase using varying levels of MeOSuc-AAPV-MCA as substrate measured at 60 mins interval for up to several hrs by Dixon plot analysis.

Test [1] is described as follows: Inhibition of rat neutrophil elastase using MeOSuc-AAPV-MCA as substrate measured at 60 mins interval for up to several hrs by fluorescence assay. The method, boiled down:
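Rat neutrophil elastase was acid-extracted from homogenized rat lung and enriched by ammonium sulfate precipitation. […] Enzyme was routinely 0.8 nM for 60 min, or 0.08 nM over several hours for very potent inhibitors. Fluorescence was read at ex 395/em 460 nm, and IC50 was interpolated (N≥4).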

Test [2] in a line: Competitive inhibition of rat neutrophil elastase using varying levels of MeOSuc-AAPV-MCA as substrate measured at 60 mins interval for up to several hrs by Dixon plot analysis.

In the case of `CC(=O)C1=C(C)N(c2cccc(C(F)(F)F)c2)C(=O)N[C@@H]1c1ccc(C#N)nc1` [BAY-678], the Ki amounted to 700 nM on Neutrophil elastase and 600 nM in test [2]. The compound further displayed an IC50 in test [1] of 800 nM.

For orientation: Ki means a measure of affinity in units of concentration, obtained from inhibition or displacement. The low end stands for a stronger hold on the target, the high end for a looser hold on the target. Broadly, the IC50 is the point on the concentration scale where inhibition reaches its midpoint. Read a low IC50 as greater potency in that assay.
